{"source": "patent US20150086626A1", "about": "“STABLE DOSAGE FORMS OF SKELETAL MUSCLE RELAXANTS WITH EXTENDED RELEASE COATING” (MYLAN, INC, priority 2012, published 2015)", "origin": "cited, not measured here"}
{"smiles": "CN(C)CCC=C1c2ccccc2C=Cc2ccccc21.Cl", "note": "[Cyclobenzaprine hydrochloride, 3-(5H-dibenzo[a,d]cyclohepten-5-ylidene)-N,N-dimethyl-1-propanamine hydrochloride]", "values": [{"measurement": "Solubility in hydrocarbon solvents", "setting": "hydrocarbon solvents", "result": "insoluble"}, {"measurement": "Solubility in isopropanol", "setting": "isopropanol", "result": "sparingly soluble"}, {"measurement": "Solubility in water and alcohol", "setting": "water and alcohol", "result": "freely soluble"}]}
